For this assay, the target named is cAMP and cAMP-inhibited cGMP 3',5'-cyclic phosphodiesterase 10A (Homo sapiens, UniProt Q9Y233). Nature of the assay: Inhibition of human recombinant PDE10A expressed in baculovirus-SF21 cell system assessed as hydrolysis of [3H]cAMP after 1 hr by liquid scintillation counting. In outline:
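Human recombinant PDE10A expressed in baculovirus-infected Sf21 cells; cytosolic supernatant taken after sonication and 48000g spin. Assay in 50 mM Tris-HCl/5 mM MgCl2, pH 7.4, with 0.1 μM [3H]cAMP at 37 °C for 30 min. Stopped with Ysi-SPA beads and counted by scintillation 1 h later. Nonspecific activity measured without enzyme.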

By UniProt entry, the sequences of proteins in these tests, tags left out. Where a name states a change or a piece, a line headed by the entry shows the natural chain unless it says otherwise.
UniProt Q9Y233: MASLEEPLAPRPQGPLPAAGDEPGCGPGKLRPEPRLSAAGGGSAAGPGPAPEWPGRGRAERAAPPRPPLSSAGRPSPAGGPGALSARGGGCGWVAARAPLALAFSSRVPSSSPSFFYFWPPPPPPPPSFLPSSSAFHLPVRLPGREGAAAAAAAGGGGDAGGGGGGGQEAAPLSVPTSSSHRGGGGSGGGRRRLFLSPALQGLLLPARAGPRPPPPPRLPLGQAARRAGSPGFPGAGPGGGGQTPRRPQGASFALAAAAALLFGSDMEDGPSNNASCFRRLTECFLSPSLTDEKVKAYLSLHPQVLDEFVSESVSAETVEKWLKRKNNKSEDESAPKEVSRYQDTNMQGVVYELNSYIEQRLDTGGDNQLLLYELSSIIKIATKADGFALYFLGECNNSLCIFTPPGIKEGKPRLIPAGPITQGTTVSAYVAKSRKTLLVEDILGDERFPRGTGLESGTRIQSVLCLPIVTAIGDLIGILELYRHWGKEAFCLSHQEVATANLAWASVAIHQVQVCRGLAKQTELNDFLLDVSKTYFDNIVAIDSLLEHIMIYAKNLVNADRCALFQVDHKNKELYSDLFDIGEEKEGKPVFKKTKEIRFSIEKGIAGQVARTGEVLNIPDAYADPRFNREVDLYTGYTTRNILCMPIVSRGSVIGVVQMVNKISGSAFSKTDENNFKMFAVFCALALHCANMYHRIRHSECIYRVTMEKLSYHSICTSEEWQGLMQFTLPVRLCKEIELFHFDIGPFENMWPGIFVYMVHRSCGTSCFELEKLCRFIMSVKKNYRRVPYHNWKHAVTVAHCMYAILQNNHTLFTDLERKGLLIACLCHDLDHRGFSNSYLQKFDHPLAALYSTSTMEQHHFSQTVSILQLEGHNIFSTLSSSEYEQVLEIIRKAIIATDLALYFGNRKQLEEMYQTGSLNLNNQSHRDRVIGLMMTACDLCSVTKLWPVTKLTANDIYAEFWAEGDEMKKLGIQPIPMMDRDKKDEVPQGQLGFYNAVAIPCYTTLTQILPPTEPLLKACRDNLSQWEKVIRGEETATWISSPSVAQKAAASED

Molecules are shown by their SMILES. Values joined by “and” are separate entries in the source; they are usually repeats but may differ in a detail not shown here. Equal entries are not always repeated.

A word on the IC50: it is the concentration that gives 50% inhibition.

Take `COc1ccc(Cc2nccc3cc(OC)c(OC)cc23)cc1OC` [PAPAVERINE]: the IC50 was 56.9 nM and 76 nM.

(Values after ChEMBL document CHEMBL1155487, “Discovery of imidazo[1,5-a]pyrido[3,2-e]pyrazines as a new class of phosphodiesterase 10A inhibitiors” (J Med Chem, 2010).)
